Consider seven compounds from paper PMC2915928 (Bioorganic & medicinal chemistry, 2009).

Amino acid sequences for entries named in this document (tags omitted). A change or cut given only in a name is not applied to a line headed by its entry.
UniProt P42866, whole entry: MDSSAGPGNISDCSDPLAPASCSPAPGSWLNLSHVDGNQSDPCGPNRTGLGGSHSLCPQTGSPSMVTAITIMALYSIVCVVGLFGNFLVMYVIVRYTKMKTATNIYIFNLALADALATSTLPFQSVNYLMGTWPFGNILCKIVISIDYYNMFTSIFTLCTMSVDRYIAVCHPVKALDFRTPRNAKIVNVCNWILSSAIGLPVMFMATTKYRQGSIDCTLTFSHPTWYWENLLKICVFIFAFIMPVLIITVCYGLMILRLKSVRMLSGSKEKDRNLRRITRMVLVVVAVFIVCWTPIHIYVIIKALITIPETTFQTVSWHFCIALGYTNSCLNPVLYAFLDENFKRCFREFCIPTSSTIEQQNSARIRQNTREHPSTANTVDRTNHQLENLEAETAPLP
UniProt P41146: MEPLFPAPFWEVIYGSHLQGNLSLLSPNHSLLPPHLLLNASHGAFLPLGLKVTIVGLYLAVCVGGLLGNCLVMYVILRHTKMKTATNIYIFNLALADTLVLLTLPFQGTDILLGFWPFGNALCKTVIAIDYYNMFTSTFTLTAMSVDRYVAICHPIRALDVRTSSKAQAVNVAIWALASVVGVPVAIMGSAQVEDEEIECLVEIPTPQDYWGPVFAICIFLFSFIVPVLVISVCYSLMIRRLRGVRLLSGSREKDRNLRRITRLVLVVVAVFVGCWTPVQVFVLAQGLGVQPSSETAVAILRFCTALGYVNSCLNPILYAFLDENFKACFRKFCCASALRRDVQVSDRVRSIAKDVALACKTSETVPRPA

Experiment [1] deals with T1, μ-opioid receptor (Mus musculus, UniProt P42866). In words: biochemical.
Experiment [2] addresses T1, μ-opioid receptor. Description: biochemical. This is another data set of the same source.
Experiment [3] has as its target T1, μ-opioid receptor. Description: biochemical. The source holds these as a separate data set.
In experiment [4] the target is nociceptin (NOP) receptor (Homo sapiens, UniProt P41146). Type of experiment: biochemical.

Where two headings read alike, the source gives them in different places.

As to `CC(C)(C)c1ccc(C(=O)N[C@@H]2CC[C@@]3(O)[C@H]4Cc5ccc(O)c6c5[C@@]3(CCN4CC3CC3)[C@H]2O6)cc1` [Compound 8, 17-Cyclopropylmethyl-3,14β-dihydroxy-4,5α-epoxy-6β-[(4′-t-butyl)benzamido] morphinan], in experiment [1], the Ki (as a rule, a dissociation constant, usually derived from enzyme kinetics or from competition with a known ligand) is greater than 10 µM. Further, the EC50 (as a rule, the midpoint of the concentration-response curve) in experiment [2] was greater than 10 µM.
Compound `O=C(N[C@@H]1CC[C@@]2(O)[C@H]3Cc4ccc(O)c5c4[C@@]2(CCN3CC2CC2)[C@H]1O5)c1ccc(I)cc1` [Compound 7, 17-Cyclopropylmethyl-3,14β-dihydroxy-4,5α-epoxy-6β-[(4′-iodo)benzamido] morphinan] showed a Ki in experiment [1] greater than 10 µM. For the same compound, in experiment [3], the EC50 is greater than 10 µM.
“nociceptin [Compound 15, reference compound]”: the “NOP Emax, stimulation of [35S]GTPγS binding” value in experiment [4] was found to be 109 ± 11%.
The compound `O=C(N[C@@H]1CC[C@@]2(O)[C@H]3Cc4ccc(O)c5c4[C@@]2(CCN3CC2CC2)[C@H]1O5)c1ccc(Br)cc1.O=C(O)C(=O)O` [Compound 6, 17-Cyclopropylmethyl-3,14β-dihydroxy-4,5α-epoxy-6β-[(4′-bromo)benzamido] morphinan] came in with a Ki in experiment [1] greater than 10 µM. This compound also showed an EC50 in experiment [3] greater than 10 µM.
On to `Cc1ccc(C(=O)N[C@@H]2CC[C@@]3(O)[C@H]4Cc5ccc(O)c6c5[C@@]3(CCN4CC3CC3)[C@H]2O6)cc1` [Compound 4, 17-Cyclopropylmethyl-3, 14β-dihydroxy-4, 5α-epoxy-6 β-[(4′-methyl)benzamido] morphinan], for which, in experiment [3] (read-out: μ Emax, inhibition of basal [35S]GTPγS binding), the Emax (as a rule, the maximal effect, on the per cent scale that the assay sets) is 33 ± 2.4%. In addition, the EC50 in experiment [2] was greater than 10 µM.
In the case of `O=C(N[C@@H]1CC[C@@]2(O)[C@H]3Cc4ccc(O)c5c4[C@@]2(CCN3CC2CC2)[C@H]1O5)c1ccc(Cl)cc1` [Compound 10, 17-cyclopropylmethyl-3,14β-dihydroxy-4,5α-epoxy-6β-[(4′-chloro)benzamido] morphinan], in experiment [3], the EC50 is greater than 10 µM.
In turn, `O=C(N[C@@H]1CC[C@@]2(O)[C@H]3Cc4ccc(O)c5c4[C@@]2(CCN3CC2CC2)[C@H]1O5)c1ccc(C(F)(F)F)cc1` [Compound 5, 17-Cyclopropylmethyl-3,14β-dihydroxy-4, 5α-epoxy-6β-[(4′-trimethylfluoro)benzamido] morphinan] came in with a Ki in experiment [1] greater than 10 µM. The compound also showed an EC50 in experiment [3] greater than 10 µM.
